The source of these data is ChEMBL document CHEMBL3351667, “A chemical tuned strategy to develop novel irreversible EGFR-TK inhibitors with improved safety and pharmacokinetic profiles” (J Med Chem, 2014).

The chains behind the UniProt entries cited, without tags or fusion partners. Residues count along the entry.
UniProt P00533, whole entry: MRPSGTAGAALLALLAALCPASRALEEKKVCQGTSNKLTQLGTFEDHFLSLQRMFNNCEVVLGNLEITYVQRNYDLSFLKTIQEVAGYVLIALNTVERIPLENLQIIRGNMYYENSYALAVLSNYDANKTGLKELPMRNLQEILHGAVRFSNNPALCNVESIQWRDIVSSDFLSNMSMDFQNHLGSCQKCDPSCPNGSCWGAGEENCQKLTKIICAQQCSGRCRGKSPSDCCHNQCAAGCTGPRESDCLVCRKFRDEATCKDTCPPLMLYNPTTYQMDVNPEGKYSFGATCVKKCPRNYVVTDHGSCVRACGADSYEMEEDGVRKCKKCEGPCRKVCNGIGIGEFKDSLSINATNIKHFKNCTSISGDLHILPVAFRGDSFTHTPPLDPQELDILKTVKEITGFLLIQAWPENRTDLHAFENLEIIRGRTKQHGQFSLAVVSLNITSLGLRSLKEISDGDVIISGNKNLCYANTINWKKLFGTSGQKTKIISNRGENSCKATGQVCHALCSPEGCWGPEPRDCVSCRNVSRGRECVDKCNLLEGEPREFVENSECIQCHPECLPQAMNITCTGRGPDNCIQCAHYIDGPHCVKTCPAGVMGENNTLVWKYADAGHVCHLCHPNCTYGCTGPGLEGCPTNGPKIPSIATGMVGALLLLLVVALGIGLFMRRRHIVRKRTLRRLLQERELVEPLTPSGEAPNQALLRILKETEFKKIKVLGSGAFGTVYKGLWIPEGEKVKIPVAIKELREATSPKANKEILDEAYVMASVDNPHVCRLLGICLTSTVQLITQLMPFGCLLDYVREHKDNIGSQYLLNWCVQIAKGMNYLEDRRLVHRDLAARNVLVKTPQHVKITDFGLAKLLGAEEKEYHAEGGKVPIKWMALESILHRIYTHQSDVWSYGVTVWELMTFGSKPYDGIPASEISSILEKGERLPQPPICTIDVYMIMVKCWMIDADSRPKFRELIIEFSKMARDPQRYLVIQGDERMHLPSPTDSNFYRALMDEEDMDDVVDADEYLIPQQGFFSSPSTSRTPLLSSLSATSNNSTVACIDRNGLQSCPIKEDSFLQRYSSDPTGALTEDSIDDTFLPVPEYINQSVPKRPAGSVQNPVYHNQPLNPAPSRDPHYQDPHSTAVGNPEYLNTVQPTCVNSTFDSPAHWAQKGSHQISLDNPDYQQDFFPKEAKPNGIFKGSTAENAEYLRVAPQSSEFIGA
UniProt P00533, 25-1210 T790M limits assumed: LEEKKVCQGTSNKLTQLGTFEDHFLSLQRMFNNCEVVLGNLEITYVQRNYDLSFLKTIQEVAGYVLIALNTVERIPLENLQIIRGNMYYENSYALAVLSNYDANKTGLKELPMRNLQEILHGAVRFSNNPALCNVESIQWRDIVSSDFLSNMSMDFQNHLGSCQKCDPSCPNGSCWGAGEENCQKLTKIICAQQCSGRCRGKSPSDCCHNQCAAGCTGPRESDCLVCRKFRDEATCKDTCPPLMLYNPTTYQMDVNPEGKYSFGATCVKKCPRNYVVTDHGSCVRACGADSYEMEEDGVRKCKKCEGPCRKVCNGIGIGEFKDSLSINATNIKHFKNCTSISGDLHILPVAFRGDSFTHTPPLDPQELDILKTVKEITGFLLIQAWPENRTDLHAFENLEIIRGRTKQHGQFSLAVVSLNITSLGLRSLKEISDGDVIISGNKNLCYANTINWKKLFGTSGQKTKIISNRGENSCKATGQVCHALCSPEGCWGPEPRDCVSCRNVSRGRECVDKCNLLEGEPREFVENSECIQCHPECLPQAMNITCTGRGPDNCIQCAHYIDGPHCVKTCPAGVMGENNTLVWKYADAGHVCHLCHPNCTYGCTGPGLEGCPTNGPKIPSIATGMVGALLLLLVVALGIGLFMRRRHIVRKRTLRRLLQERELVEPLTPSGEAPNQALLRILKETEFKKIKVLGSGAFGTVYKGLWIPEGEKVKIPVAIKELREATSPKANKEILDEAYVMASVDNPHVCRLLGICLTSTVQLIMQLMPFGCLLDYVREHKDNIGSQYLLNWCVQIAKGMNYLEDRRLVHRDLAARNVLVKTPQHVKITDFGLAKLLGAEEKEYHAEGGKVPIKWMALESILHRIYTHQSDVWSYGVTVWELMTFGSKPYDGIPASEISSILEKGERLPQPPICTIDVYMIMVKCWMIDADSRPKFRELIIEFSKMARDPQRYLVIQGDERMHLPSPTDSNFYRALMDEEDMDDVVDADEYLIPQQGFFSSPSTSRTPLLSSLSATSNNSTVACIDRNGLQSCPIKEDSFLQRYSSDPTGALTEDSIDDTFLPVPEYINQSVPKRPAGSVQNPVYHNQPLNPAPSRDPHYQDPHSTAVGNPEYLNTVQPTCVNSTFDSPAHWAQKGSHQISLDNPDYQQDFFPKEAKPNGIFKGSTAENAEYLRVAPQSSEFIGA

In test [1] the test system is NCI-H1975. Nature of the test: cells. The settings on record: Homo sapiens, NCI-H1975, 48 h. Format: functional, cell-based.
In test [2] the test system is A-431. The test is described as follows: cells. The note with it: Homo sapiens, A-431, 48 h. Format: functional, cell-based.
In test [3] the target is Epidermal growth factor receptor (Homo sapiens, UniProt P00533).
In test [4] the target is Epidermal growth factor receptor (Homo sapiens, UniProt P00533, T790M). Format: protein assay.

Consider `COc1cc2ncnc(Nc3ccc(F)c(Cl)c3)c2cc1NC(=O)/C(F)=C/CN(C)C`, for which the IC50 (commonly the midpoint of a concentration-inhibition curve) worked out at 410 nM in test [1] and 550 nM in test [2].

As to `COc1cc2ncnc(Nc3ccc(F)c(Cl)c3)c2cc1NC(=O)/C(F)=C/CN1CCCCC1`, the IC50 in test [1] turned out to be 760 nM.

On to `COc1cc2ncnc(Nc3ccc(F)c(Cl)c3)c2cc1NC(=O)/C(F)=C\CN1CCCCC1`, for which half-maximal inhibition in test [2] (IC50) required 680 nM. Regarding `CCOc1cc2ncnc(Nc3ccc(OCc4ccccn4)c(Cl)c3)c2cc1NC(=O)/C(F)=C/CN(C)C`, the midpoint of inhibition in test [1], the IC50, lay at 640 nM.

On to `CCOc1cc2ncnc(Nc3ccc(OCc4ccccn4)c(Cl)c3)c2cc1NC(=O)/C(F)=C\CN(C)C`, for which the IC50 in test [2] stood at 980 nM. `O=C(Nc1cc2c(Nc3ccc(F)c(Cl)c3)ncnc2cc1O[C@H]1CCOC1)/C(F)=C/CN1CCOCC1`: the 50% inhibitory concentration (IC50) came out at 0.26 nM in test [3] and 21.3 nM in test [4].

As to `O=C(Nc1cc2c(Nc3ccc(F)c(Cl)c3)ncnc2cc1O[C@H]1CCOC1)/C(F)=C\CN1CCOCC1`, the IC50 in test [3] worked out at 1 nM; in test [4], 42.9 nM.
